Measured values taken from publication PMC5749160, “Disruption of an RNA-binding hinge region abolishes LHP1-mediated epigenetic repression” (Genes & Development, 2017).

T1: GST-LHP1 (LIKE HETEROCHROMATIN PROTEIN 1, full length, glutathione-S-transferase fusion) (Arabidopsis, UniProt Q946J8 1-445)
T1 construct: LIKE HETEROCHROMATIN PROTEIN 1 (LHP1), Arabidopsis, full length, expressed from pGEX-LHP1; source: E. coli BL21 Rosetta (DE3) pLysS, purified (glutathione-sepharose 4B)
T1 sequence (looked up): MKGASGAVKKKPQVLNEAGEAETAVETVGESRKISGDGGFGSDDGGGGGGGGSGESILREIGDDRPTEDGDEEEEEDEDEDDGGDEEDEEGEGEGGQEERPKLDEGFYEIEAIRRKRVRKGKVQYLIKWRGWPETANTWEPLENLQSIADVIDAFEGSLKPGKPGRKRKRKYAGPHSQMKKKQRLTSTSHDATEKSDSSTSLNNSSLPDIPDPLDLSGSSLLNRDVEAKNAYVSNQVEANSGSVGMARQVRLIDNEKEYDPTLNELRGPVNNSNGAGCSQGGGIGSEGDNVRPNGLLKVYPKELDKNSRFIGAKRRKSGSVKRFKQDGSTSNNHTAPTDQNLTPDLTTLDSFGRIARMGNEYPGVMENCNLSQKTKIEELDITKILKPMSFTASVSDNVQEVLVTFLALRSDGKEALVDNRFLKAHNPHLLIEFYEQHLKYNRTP

B1: histone H3 […] peptide with K9me2, biotinylated (peptide)
peptide: not shown
modifications: dimethyl-lysine at K9 (K9me2); biotin at the C-terminus (-GGK-Biotin)
notes: histone H3 […]; linker before the biotin; also called H3K9me2; H3K9me2-modified histone peptide; source: synthetic peptide, bought: Anaspec
B2: histone H3 […] peptide with K9me3, biotinylated (peptide)
peptide: not shown
modifications: trimethyl-lysine at K9 (K9me3); biotin at the C-terminus (-GGK-Biotin)
notes: histone H3 […]; linker before the biotin; also called H3K9me3; H3K9me3-modified histone peptide; source: synthetic peptide, bought: Anaspec

Biological target: T1, GST-LHP1 (LIKE HETEROCHROMATIN PROTEIN …)
Assay: pull-down; biotinylated histone peptide (0.5 ug) held on streptavidin Dynabeads; GST fusion protein 5 uM in 50 mM Tris pH 7.5, 150 mM NaCl, 0.1% NP-40, 1 mM DTT, 15 min at 4 C; bound protein detected by anti-GST immunoblot
Conditions: both partners purified

Row | Binder | binding result
1 | B1 | binds
2 | B2 | binds
